PMC8510601, “Discovery of benzamide-hydroxypyridinone hybrids as potent multi-targeting agents for the treatment of Alzheimer's disease” (Journal of Enzyme Inhibition and Medicinal Chemistry, 2021)

Protein sequences, listed by entry. Tags and fused reporters are not part of them.
UniProt P21397, whole entry: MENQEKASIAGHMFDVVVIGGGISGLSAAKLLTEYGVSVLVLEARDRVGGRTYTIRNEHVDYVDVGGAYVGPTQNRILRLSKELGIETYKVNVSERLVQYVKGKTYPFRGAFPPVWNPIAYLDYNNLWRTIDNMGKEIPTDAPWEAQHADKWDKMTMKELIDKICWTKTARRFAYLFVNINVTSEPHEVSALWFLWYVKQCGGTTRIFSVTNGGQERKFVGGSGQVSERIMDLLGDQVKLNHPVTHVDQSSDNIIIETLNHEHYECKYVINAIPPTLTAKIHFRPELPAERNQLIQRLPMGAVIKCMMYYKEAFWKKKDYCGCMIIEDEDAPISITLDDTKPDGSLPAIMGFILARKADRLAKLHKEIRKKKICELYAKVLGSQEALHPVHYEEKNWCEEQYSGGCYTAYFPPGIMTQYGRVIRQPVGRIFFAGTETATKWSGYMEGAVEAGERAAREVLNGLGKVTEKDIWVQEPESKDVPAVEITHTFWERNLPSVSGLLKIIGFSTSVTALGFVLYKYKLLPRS

What was measured:
[1] = target: MAO-A (Homo sapiens, UniProt P21397); test: Human MAO-A inhibitory assay; assay type: biochemical; settings: read-out: IC50 ± SEM MAO-A
[2] = literature value, footnote b; cited from earlier work

| Structure (SMILES) | IC50 [1] [µM] | Pe [2] |
| --- | --- | --- |
| C#CCN(C)Cc1ccccc1 [Pargyline, reference compound] | 4.189 ± 0.005 |  |
| Cn1c(=O)c2[nH]cnc2n(C)c1=O [Theophylline] |  | 1.07 ± 0.18^b 10^–6 cm/s |
